Results: ChEMBL document CHEMBL4825756, “New Design Rules for Developing Potent Cell-Active Inhibitors of the Nucleosome Remodeling Factor (NURF) via BPTF Bromodomain Inhibition” (J Med Chem, 2021)

Biological target: Nucleosome-remodeling factor subunit BPTF (Homo sapiens, UniProt Q12830)
Experiment: Inhibition of HIS9-tagged BPTF (unknown origin) expressed in Escherichia coli BL21 (DE3) cells incubated for 30 mins by AlphaScreen assay

SMILES | pIC50
Cn1ncc(N[C@H]2CCNC2)c(Cl)c1=O | 4.51
Cn1ncc(N[C@@H]2CCNC2)c(Cl)c1=O | 5.00

pIC50: −log10 of the molar value.
